miR-21 reporter = miR-21 reporter, rising signal; HeLa miR-21 FLuc reporter, luciferase, 48 h; Potency, µM (doses to about 38.3 µM); 340,000 tested, under 10 active; AID 2288; active = well fitted rising curve with a large enough effect; inconclusive = small, poorly fitted or top-dose-only effect; inactive = no such curve, though single readings can be large or run the other way;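 further: miR-21 action dims this reporter so a rising signal means less miR-21 action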
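Compounds were titrated across several concentrations (up to approximately 40 uM) and incubated 48 hours with HeLa miR-21-FLuc reporter cells (miR-21 target sequence downstream of FLuc, endogenous miR-21). Readout was firefly luciferase luminescence after lytic detection reagent.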
p53 reactivation = restores transcriptional activity of mutant p53. H1299 p53-A138V BP100-luciferase reporter, luminescence, 24 h. Potency, µM (top dose mostly 92.2 µM), usual class: activators. 0.063% of 320,000 active; also: nearly all actives have a fitted effect of over 45% in size
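p53-null H1299 cells stably carrying temperature-sensitive p53-A138V and a BP100-luciferase reporter were pinned with compounds (4-point, 1:5 series) and held 24 hrs at 37 deg C. Luminescence was read 10 min after detection reagent.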
ClpP mod = qHTS Assay for Activators of ClpP | ATP-dependent Clp protease proteolytic subunit (Bacillus subtilis (strain 168)), P80244 | purified B. subtilis ClpP, FRET peptide cleavage, 20 min | Potency, µM (series often up to 57.5 µM) | 1.9% of 340,000 active | AID 651965, 2013; active = well fitted falling curve with a large enough effect; inconclusive = small, poorly fitted or top-dose-only effect; inactive = no such curve, though single readings can be large or run the other way; also: the source files actives as falling curves though it sought activators and does not explain the sign; nearly all actives have a fitted effect of over 65% in size
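FRET quenching reversal measured ClpP activation: 10 microg/mL B. subtilis ClpP at pH 8 with the FRET-FV decapeptide, read at 430 nm after 320 nm excitation. The 20-min minus 0-min signal was scaled between DMSO/no-enzyme wells and ADEP (5.8 microM final).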
Nrf2 inh = Nrf2 pathway inhibition; A549 ARE-Fluc reporter, luciferase luminescence, 18-24 h; Potency, µM (series often up to 46 µM), hits mostly inhibitors; 2.1% of 360,000 active; also: nearly all actives have a fitted effect of over 60% in size
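Cells were seeded and rested 2 h, then exposed to compounds for 18-24 h. CellTiter-Fluor was read first as a viability measure. BugLite was added 15 min before the final luminescent read of ARE-luciferase activity in A549 cells.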
Nrf2 ARE act = activates Nrf2 signaling; 0.31% of 410,000 active; Potency, µM (doses to about 46.1 µM), usual class: activators; AID 624171; AREc32 ARE-luciferase reporter (MCF7-derived line), luminescence, 24 h; also: nearly all actives have a fitted effect of over 65% in size
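Nrf2 activation is followed as ARE-luciferase induction in the AREc32 line after one day of compound treatment; luminescence is read with Steady-Glo.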
A549 viability = counter-screen for Nrf2 inhibitors: cytotoxicity in A549 cells; Potency, µM (titrated, usually from 46 µM), actives largely listed as inhibitors; A549 ARE-Fluc cells, CellTiter-Fluor viability, 18-24 h; AID 504648; 0.16% of 390,000 active
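A549 ARE-Fluc cells in 5% FBS OPTI-MEM, 5000 cells/well, rested 2 h then exposed to compounds in concentration-response for 18-24 h at 37 °C. Viability by CellTiter-Fluor fluorescence (Ex 405/Em 525) after 30 min; luciferase luminescence (BugLite, 15 min, RT) read afterwards.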
Numbers stand for hits; - = inactive; ? = inconclusive; . = no result; [ ] = dose if it differs, or a comment. Most compounds without a hit are left out; they make up all but 3.7% or so of the library. Unless noted, calls follow the shape of the dose curve; as a rule, active = well fitted curve in the direction sought with a large enough effect; inconclusive = small, poorly fitted or top-dose-only effect, or another doubt; inactive = no such curve, though single readings can be large; an effect the other way counts as inactive or inconclusive.

SMILES	miR-21 reporter	p53 reactivation	ClpP mod	Nrf2 inh	Nrf2 ARE act	A549 viability
O=c1c2ccccc2c(-c2ccc(O)cc2)nn1-c1cccc(C(F)(F)F)c1	-	-	-	23µM	-	-
COCCn1c(CNC(=O)c2cccc(N(C)C)c2)nc2cccnc21	-	.	-	.	-	-
CC(C)(C)c1ccc(N/N=C(\C#N)S(=O)(=O)C(C)(C)C)cc1	-	-	.	?	-[9.22 µM]	?
CC(C)(C)S(=O)(=O)/C(C#N)=N/Nc1ccc(Cl)cc1	?	-	.	10µM	-	?
CCc1cccc(NC(=O)c2c(C)oc3ncnc(N4CCCCC4)c23)c1	-	.	-	?	-	-
COC(=O)c1cnc2c(C(F)(F)F)cccc2c1OC	-	-	16µM	.	-	-
CC1(C)CC2(OC2c2ccccc2[N+](=O)[O-])C(=O)c2ccccc21 (stereo not given)	.	.	-	.	-	.
CC1(c2nnc(Cc3ccccc3)o2)CC(c2ccccc2)=NO1 (stereo not given)	.	.	-	-	-	-
CC1(c2nnc(Cc3ccccc3)o2)CC(c2ccc(OC(F)(F)F)cc2)=NO1 (stereo not given)	.	-	-	23µM	-	-
CCC1(c2ccccc2)SCC(c2ccccc2)=NC1=O (stereo not given)	.	.	.	18µM	-	-
CCC1(c2ccccc2)SC(N)=NC1=O (stereo not given)	.	.	-	-	-	-
CC(C(=O)Nc1ncc2c(n1)CC(C)(C)CC2=O)N1C(=O)c2ccccc2C1=O (stereo not given)	-	-	28µM	-	-	-
COc1ccc(N2CC(C(=O)Nc3ccc(NC(C)=O)cc3)CC2=O)cc1 (stereo not given)	-	.	-	-	-	-
O=C(COC(=O)c1ccc2c(c1)S(=O)(=O)c1ccccc1C2=O)NC1CC1	-	-	.	-	-	-
CC1CCC(NC(=O)c2ccc3c(c2)S(=O)(=O)c2ccccc2C3=O)CC1 (stereo not given)	.	.	-	16µM	-	-
CC1(CCc2ccc3c(c2)OCO3)NC(=O)c2ccccc2N1 (stereo not given)	-	-	28µM	-	-	-
O=C1NC(c2ccc3ccccc3c2)Nc2ccccc21 (stereo not given)	.	.	-	.	-	.
O=C1NC(c2ccc3c(c2)OCO3)Nc2ccccc21 (stereo not given)	-	-	32µM	.	-	-
COc1ccc(Cn2ccc3nc(C)c(C(=O)N4CCN(c5cccc(OC)c5)CC4)cc3c2=O)cc1	-	.	-	?	-	-
Nc1cc2[nH]c(=O)c3ccccc3c2cc1Br	.	.	-	?	?	-
CC(=O)Nc1ccc2c(c1)[nH]c(=O)c1ccccc12	.	.	32µM	?	-	-
O=C(Nc1ccc2c(c1)[nH]c(=O)c1ccccc12)C(F)(F)F	.	.	-	?	-	-
Nc1ccc2c(c1)[nH]c(=O)c1ccccc12	.	.	20µM	?	-	-
Nc1cccc2[nH]c(=O)c3ccccc3c12	.	.	28µM	-	-	-
Cc1cc(C)c(Nc2nc3ccccc3n3c(C)nnc23)c(C)c1	-	.	-	-	-	-
SMILES	miR-21 reporter	p53 reactivation	ClpP mod	Nrf2 inh	Nrf2 ARE act	A549 viability
Cc1oc2c(CN3CCCCC3)c(O)ccc2c(=O)c1-c1ccc(Br)cc1	-	-	.	?	-	-
Cc1oc2c(CN3CCCC3)c(O)ccc2c(=O)c1-c1ccc(Br)cc1	-	-	14µM	-	-	-
COc1ccc(-c2c(C)oc3c(CN4CCOCC4)c(O)ccc3c2=O)cc1OC	-	-	?	-	-	-
COc1ccc(-c2c(C)oc3c(CN4CCN(CCO)CC4)c(O)ccc3c2=O)cc1OC	-	-	22µM	-	-	-
CCOC(=O)C1=C(CS(=O)(=O)c2ccc(OC)c(Cl)c2)NC(=O)NC1c1cccc(OC)c1 (stereo not given)	-	.	-	-	-	-
Cc1ccsc1/C=N/n1cnc2sc(C)c(C)c2c1=O	-	?	32µM	.	-	-
